Target: T1, CD19 on RAJI, Nalm6 or RS4;11 cells (human, UniProt P15391 20-556)
T1 sequence (looked up): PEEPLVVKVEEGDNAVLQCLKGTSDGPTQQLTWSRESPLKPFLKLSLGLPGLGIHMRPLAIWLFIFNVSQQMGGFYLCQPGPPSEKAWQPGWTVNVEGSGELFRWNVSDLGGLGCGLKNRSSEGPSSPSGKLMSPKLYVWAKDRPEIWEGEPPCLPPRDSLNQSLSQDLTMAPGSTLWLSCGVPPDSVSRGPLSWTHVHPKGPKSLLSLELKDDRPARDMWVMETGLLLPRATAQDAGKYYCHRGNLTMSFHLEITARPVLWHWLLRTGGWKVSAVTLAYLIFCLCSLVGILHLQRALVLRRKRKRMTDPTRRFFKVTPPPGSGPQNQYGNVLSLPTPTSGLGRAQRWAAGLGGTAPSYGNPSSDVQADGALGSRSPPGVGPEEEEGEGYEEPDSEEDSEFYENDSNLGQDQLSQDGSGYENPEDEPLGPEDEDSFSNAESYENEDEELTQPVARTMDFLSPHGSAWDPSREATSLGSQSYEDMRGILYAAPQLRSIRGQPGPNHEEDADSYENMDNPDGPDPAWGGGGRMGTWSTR
Experiment: cell-based or functional assay

| Binder | NFAT-GFP assay: JNG cells with the SAR co-cultured ~24 h with RAJI |
| --- | --- |
|  (receptor) DIQMTQSPSSLSASVGDRVTITCKASDHINNWLAWYQQKPGQAPKLLIYGATTLETGVPSRFSGSGSGTDYTLTISSLQPEDFATYYCQQSWNTPWTFGQGTKLEIKRLELWVSQPPEIRTLEGSSAFLPCSFNASQGRLAIGSVTWFRDEVVPGKEVRNGTPEFRGRLAPLASSRFLHDHQAELHIRDVRGHDASIYVCRVEVLGLGVGTGNGTRLVVEKEHPQLGAGTVLLLRAGFYAVSFLSVAVGSTVYYQGKCLTWKGPRRQLPAVVPAPLPPPCGSSAHLLPPVPGGRAKRSGSGATNFSLLKQAGDVEENPGPTSMDWIWRILFLVGAATGAHSFEQVQLQQPGAELVKPGASVKMSCKASGYAFSSYWINWMKQKPGQGLEWIGQIYPGDGDTNYNGKFKGRATLTADTSSSTAYMQLSSLTSEDSAVYFCARSITTVVGCAMDYWGQGTSVTVSSTRLWVSQPPEIRTLEGSSAFLPCSFNASQGRLAIGSVTWFRDEVVPGKEVRNGTPEFRGRLAPLASSRFLHDHQAELHIRDVRGHDASIYVCRVEVLGLGVGTGNGTRLVVEKEHPQLGAGTVLLLRAGFYAVSFLSVAVGSTVYYQGKCLTWKGPRRQLPAVVPAPLPPPCGSSAHLLPPVPGGRAKRSGSGVKQTLNFDLLKLAGDVESNPGPSRGHMTEYKPTVRLATRDDVPRAVRTLAAAFADYPATRHTVDPDRHIERVTELQELFLTRVGLDIGKVWVADDGAAVAVWTTPESVEAGAVFAEIGPRMAELSGSRLAAQQQMEGLLAPHRPKEPAWFLATVGVSPDHQGKGLGSAVVLPGVEAAERAGVPAFLETSAPRNLPFYERLGFTVTADVEVPEGPRTWCMTRKPGA | 0.3 + score |
|  (receptor) DIQMTQSPSSLSASVGDRVTITCKASDHINNWLAWYQQKPGQAPKLLIYGATTLETGVPSRFSGSGSGTDYTLTISSLQPEDFATYYCQQSWNTPWTFGQGTKLEIKRLEGQPKANPTVTLFPPSSEELQANKATLVCLISDFYPGAVTVAWKADGSPVKAGVETTKPSKQSNNKYAASSYLSLTPEQWKSHRSYSCQVTHEGSTVEKTVAPTECSGTLPIQVEQNFLSNLFVASWIAVMIIFRIGMAVAIFCCFFFPSANERCKSKVVPCRQKQWRTSFDSKKLDLNYNHFESMEWSHRSRRGRIWGRAKRSGSGATNFSLLKQAGDVEENPGPTSMDWIWRILFLVGAATGAHSFEQVQLQQPGAELVKPGASVKMSCKASGYAFSSYWINWMKQKPGQGLEWIGQIYPGDGDTNYNGKFKGRATLTADTSSSTAYMQLSSLTSEDSAVYFCARSITTVVGCAMDYWGQGTSVTVSSTRGDIENTSLAPEDPTFPADTWGTYLLTTETGLQKDHALWDHTAQNLLRMGLAFLVLVALVWFLVEDWLSRKRTRERASRASTWEGRRRLNTQTLRAKRSGSGVKQTLNFDLLKLAGDVESNPGPSRGHMTEYKPTVRLATRDDVPRAVRTLAAAFADYPATRHTVDPDRHIERVTELQELFLTRVGLDIGKVWVADDGAAVAVWTTPESVEAGAVFAEIGPRMAELSGSRLAAQQQMEGLLAPHRPKEPAWFLATVGVSPDHQGKGLGSAVVLPGVEAAERAGVPAFLETSAPRNLPFYERLGFTVTADVEVPEGPRTWCMTRKPGA | 0.6 + score |
|  (receptor) DIQMTQSPSSLSASVGDRVTITCKASDHINNWLAWYQQKPGQAPKLLIYGATTLETGVPSRFSGSGSGTDYTLTISSLQPEDFATYYCQQSWNTPWTFGQGTKLEIKRLELWVSQPPEIRTLEGSSAFLPCSFNASQGRLAIGSVTWFRDEVVPGKEVRNGTPEFRGRLAPLASSRFLHDHQAELHIRDVRGHDASIYVCRVEVLGLGVGTGNGTRLVVEKEHPQLGAGTVLLLRAGFYAVSFLSVAVGSTVYYQGKCLTWKGPRRQLPAVVPAPLPPPCGSSAHLLPPVPGGRAKRSGSGATNFSLLKQAGDVEENPGPTSMDWIWRILFLVGAATGAHSFEQVQLQQPGAELVKPGASVKMSCKASGYAFSSYWINWMKQKPGQGLEWIGQIYPGDGDTNYNGKFKGRATLTADTSSSTAYMQLSSLTSEDSAVYFCARSITTVVGCAMDYWGQGTSVTVSSTRGDIENTSLAPEDPTFPADTWGTYLLTTETGLQKDHALWDHTAQNLLRMGLAFLVLVALVWFLVEDWLSRKRTRERASRASTWEGRRRLNTQTLRAKRSGSGVKQTLNFDLLKLAGDVESNPGPSRGHMTEYKPTVRLATRDDVPRAVRTLAAAFADYPATRHTVDPDRHIERVTELQELFLTRVGLDIGKVWVADDGAAVAVWTTPESVEAGAVFAEIGPRMAELSGSRLAAQQQMEGLLAPHRPKEPAWFLATVGVSPDHQGKGLGSAVVLPGVEAAERAGVPAFLETSAPRNLPFYERLGFTVTADVEVPEGPRTWCMTRKPGA | 0.8 + score |
|  (receptor) DIQMTQSPSSLSASVGDRVTITCKASDHINNWLAWYQQKPGQAPKLLIYGATTLETGVPSRFSGSGSGTDYTLTISSLQPEDFATYYCQQSWNTPWTFGQGTKLEIKRLEKSVRFYLVVSPASASTQTSWTPRDLVSSQTQTQSCVPPTAGARQAPESPSTIPVPSQPQNSTLRPGPAAPIALVPVFCGLLVAKSLVLSALLVWWGDIWWKTMMELRSLDTQKATCHLQQVTDLPWTSVSSPVEREILYHTVARTKISDDDDEHTLRAKRSGSGATNFSLLKQAGDVEENPGPTSMDWIWRILFLVGAATGAHSFEQVQLQQPGAELVKPGASVKMSCKASGYAFSSYWINWMKQKPGQGLEWIGQIYPGDGDTNYNGKFKGRATLTADTSSSTAYMQLSSLTSEDSAVYFCARSITTVVGCAMDYWGQGTSVTVSSTRKSVRFYLVVSPASASTQTSWTPRDLVSSQTQTQSCVPPTAGARQAPESPSTIPVPSQPQNSTLRPGPAAPIALVPVFCGLLVAKSLVLSALLVWWGDIWWKTMMELRSLDTQKATCHLQQVTDLPWTSVSSPVEREILYHTVARTKISDDDDEHTLRAKRSGSGVKQTLNFDLLKLAGDVESNPGPSRGHMTEYKPTVRLATRDDVPRAVRTLAAAFADYPATRHTVDPDRHIERVTELQELFLTRVGLDIGKVWVADDGAAVAVWTTPESVEAGAVFAEIGPRMAELSGSRLAAQQQMEGLLAPHRPKEPAWFLATVGVSPDHQGKGLGSAVVLPGVEAAERAGVPAFLETSAPRNLPFYERLGFTVTADVEVPEGPRTWCMTRKPGA | 0.4 + score |
|  (receptor) DIQMTQSPSSLSASVGDRVTITCKASDHINNWLAWYQQKPGQAPKLLIYGATTLETGVPSRFSGSGSGTDYTLTISSLQPEDFATYYCQQSWNTPWTFGQGTKLEIKRLEQSKAQVLQSVAGQTLTVRCQYPPTGSLYEKKGWCKEASALVCIRLVTSSKPRTMAWTSRFTIWDDPDAGFFTVTMTDLREEDSGHYWCRIYRPSDNSVSKSVRFYLVVSPASASTQTSWTPRDLVSSQTQTQSCVPPTAGARQAPESPSTIPVPSQPQNSTLRPGPAAPIALVPVFCGLLVAKSLVLSALLVWWGDIWWKTMMELRSLDTQKATCHLQQVTDLPWTSVSSPVEREILYHTVARTKISDDDDEHTLRAKRSGSGATNFSLLKQAGDVEENPGPTSMDWIWRILFLVGAATGAHSFEQVQLQQPGAELVKPGASVKMSCKASGYAFSSYWINWMKQKPGQGLEWIGQIYPGDGDTNYNGKFKGRATLTADTSSSTAYMQLSSLTSEDSAVYFCARSITTVVGCAMDYWGQGTSVTVSSTRGDIENTSLAPEDPTFPADTWGTYLLTTETGLQKDHALWDHTAQNLLRMGLAFLVLVALVWFLVEDWLSRKRTRERASRASTWEGRRRLNTQTLRAKRSGSGVKQTLNFDLLKLAGDVESNPGPSRGHMTEYKPTVRLATRDDVPRAVRTLAAAFADYPATRHTVDPDRHIERVTELQELFLTRVGLDIGKVWVADDGAAVAVWTTPESVEAGAVFAEIGPRMAELSGSRLAAQQQMEGLLAPHRPKEPAWFLATVGVSPDHQGKGLGSAVVLPGVEAAERAGVPAFLETSAPRNLPFYERLGFTVTADVEVPEGPRTWCMTRKPGA | 0.5 + score |

— patent US20240390496A1, “SINGLE-CHAIN AND MULTI-CHAIN SYNTHETIC ANTIGEN RECEPTORS FOR DIVERSE IMMUNE CELLS” (UNIVERSITY OF SOUTHERN CALIFORNIA, published 2024)
